# Values quoted from earlier work as cited in article PMC10018702 (Nature chemistry, 2022).
# Test system: eEF1A-mutant (A399V) HCT116 cells
# Details: cited from earlier work
substance,measurement,value
ternatin-4 [reference compound],activity toward eEF1A Ala399Val homozygous human cancer cell line,inactive
